Experiments:
[1] = target: T1, Mu-type opioid receptor (Homo sapiens, UniProt P35372); experiment: Binding affinity using [3H]diprenorphine as the radioligand against wild-type Opioid receptor mu 1 in COS-7 cells
[2] = target: T1, Mu-type opioid receptor; experiment: Binding affinity using [3H]diprenorphine as the radioligand against K303E Opioid receptor mu 1 in COS-7 cells

Chains of the proteins cited; added tags and fusions are not shown.
UniProt P35372, whole entry, looked up: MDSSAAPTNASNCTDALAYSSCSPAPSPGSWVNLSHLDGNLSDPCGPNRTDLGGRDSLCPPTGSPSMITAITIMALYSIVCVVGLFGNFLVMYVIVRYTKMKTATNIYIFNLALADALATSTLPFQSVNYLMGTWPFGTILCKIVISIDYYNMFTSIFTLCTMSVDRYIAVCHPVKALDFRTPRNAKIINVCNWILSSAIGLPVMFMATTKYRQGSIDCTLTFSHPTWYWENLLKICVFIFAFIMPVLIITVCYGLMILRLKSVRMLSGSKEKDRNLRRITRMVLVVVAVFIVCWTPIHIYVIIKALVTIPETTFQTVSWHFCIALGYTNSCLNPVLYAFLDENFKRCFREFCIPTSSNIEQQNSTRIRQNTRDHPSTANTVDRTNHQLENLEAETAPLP

CO[C@]12CC[C@@]3(C[C@@H]1C(C)(C)O)[C@H]1Cc4ccc(O)c5c4[C@@]3(CCN1CC1CC1)[C@H]2O5
Ki [1]: 0.27 nM | Ki [2]: 0.33 nM

— ChEMBL document CHEMBL1133722 (J Med Chem, 2000)
